± gives the expanded uncertainty stated by the source.
Key:
[1] = 101.33 kPa, Liquid, Vibrating tube method
[2] = refractive index (Na D-line) (dimensionless); conditions: 101.33 kPa, Liquid, Standard Abbe refractometry
[3] = relative permittivity at zero frequency (dimensionless); conditions: 101.33 kPa, Liquid, Parallel plate capacitor

SMILES: CCCCOCCCC [dibutyl ether]
- mass density ([1]; 288.15 K): 772.6 ± 0.2 kg/m3
- mass density ([1]; 293.15 K): 768.27 ± 0.2 kg/m3
- mass density ([1]; 298.15 K): 763.97 ± 0.2 kg/m3
- mass density ([1]; 303.15 K): 759.62 ± 0.2 kg/m3
- mass density ([1]; 308.15 K): 755.31 ± 0.21 kg/m3
- refractive index ([2]; 293.15 K): 1.3978 ± 0.0005
- refractive index ([2]; 298.15 K): 1.3958 ± 0.0005
- refractive index ([2]; 303.15 K): 1.393 ± 0.0005
- relative permittivity at zero frequency ([3]; 288.15 K): 3.186 ± 0.19
- relative permittivity at zero frequency ([3]; 293.15 K): 3.145 ± 0.19
- relative permittivity at zero frequency ([3]; 298.15 K): 3.106 ± 0.19
- relative permittivity at zero frequency ([3]; 303.15 K): 3.068 ± 0.18
- relative permittivity at zero frequency ([3]; 308.15 K): 3.031 ± 0.18

— the NIST ThermoML archive (doi:10.1016/j.tca.2012.05.036)
